Data on two compounds can be found in patent publication US20180193330A1, “ALKYLATED TETRAHYDROISOQUINOLINES FOR BINDING TO CENTRAL NERVOUS SYSTEM RECEPTORS” (Florida A&M University, priority 2017, published 2018).

Chains of the proteins cited; added tags and fusions are not shown.
UniProt P08908, whole entry: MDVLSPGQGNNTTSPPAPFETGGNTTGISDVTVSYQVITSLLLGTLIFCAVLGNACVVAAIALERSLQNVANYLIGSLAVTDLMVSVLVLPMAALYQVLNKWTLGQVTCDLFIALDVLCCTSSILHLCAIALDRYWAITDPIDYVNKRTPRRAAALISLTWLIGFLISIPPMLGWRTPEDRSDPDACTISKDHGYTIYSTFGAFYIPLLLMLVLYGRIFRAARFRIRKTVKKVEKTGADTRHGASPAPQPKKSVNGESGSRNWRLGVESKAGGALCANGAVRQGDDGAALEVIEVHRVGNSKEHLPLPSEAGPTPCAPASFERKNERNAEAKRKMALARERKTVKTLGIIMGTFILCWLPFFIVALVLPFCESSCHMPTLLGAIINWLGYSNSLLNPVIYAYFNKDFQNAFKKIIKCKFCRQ
UniProt P35462, whole entry: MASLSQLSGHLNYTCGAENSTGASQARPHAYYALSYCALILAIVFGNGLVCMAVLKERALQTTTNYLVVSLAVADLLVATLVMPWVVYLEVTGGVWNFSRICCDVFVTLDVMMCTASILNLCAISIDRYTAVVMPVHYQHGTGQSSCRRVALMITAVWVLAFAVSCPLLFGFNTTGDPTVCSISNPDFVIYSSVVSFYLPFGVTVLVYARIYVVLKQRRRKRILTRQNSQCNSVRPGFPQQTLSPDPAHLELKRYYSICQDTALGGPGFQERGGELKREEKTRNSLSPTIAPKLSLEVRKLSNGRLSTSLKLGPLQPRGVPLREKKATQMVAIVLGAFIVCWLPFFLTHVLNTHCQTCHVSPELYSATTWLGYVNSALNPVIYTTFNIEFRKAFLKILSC

One assay addresses 5-HT1A receptor (Homo sapiens, UniProt P08908). The experiment in a line: Receptor binding affinity at 5-HT1A (NIMH-PDSP radioligand binding). The settings on record: Table 5, Group 3 analogs.
For a further assay, the target named is D3 receptor (Homo sapiens, UniProt P35462). In words: Receptor binding affinity at dopamine D3 (NIMH-PDSP radioligand binding). The settings on record: read-out: Ki D3; Table 5, Group 3 analogs; Ki without SEM within 20% of mean.

SMILES strings stand for the structures.

As a reminder, the Ki is a measure of affinity in units of concentration, obtained from inhibition or displacement.

With `O=C1c2ccc(F)cc2CC1CCN1CCc2ccccc2C1` (stereo not drawn) [Compound 3h, 2-(2-(3,4-dihydroisoquinolin-2(1H)-yl)ethyl)-5-fluoro-2,3-dihydro-1H-inden-1-one], on 5-HT1A receptor, the “pKi ± SEM 5-HT1A” value is “(7.73 ± 0.04)”. For the same compound, on 5-HT1A receptor (read-out: Ki 5-HT1A, Ki without SEM within 20% of mean), the Ki came to 19 nM.

Consider `Cl.O=C1c2ccccc2CC1CCN1CCc2ccccc2C1` (stereo not drawn) [Compound 3i, 2-(2-(3,4-dihydroisoquinolin-2(1H)-yl)ethyl)-2,3-dihydro-1H-inden-1-one hydrochloride], for which, at D3 receptor, the Ki was determined as 866 nM.
